{
  "source": "patent US8338628B2",
  "about": "“Method of synthesizing alkylated bile acid derivatives” (City of Hope, priority 2007, dated 2012)",
  "origin": "cited, not measured here",
  "molecular_target": "T1, farnesoid X receptor (FXR) (Homo sapiens, UniProt Q96RI1)",
  "T1 sequence (Q96RI1 1-486)": "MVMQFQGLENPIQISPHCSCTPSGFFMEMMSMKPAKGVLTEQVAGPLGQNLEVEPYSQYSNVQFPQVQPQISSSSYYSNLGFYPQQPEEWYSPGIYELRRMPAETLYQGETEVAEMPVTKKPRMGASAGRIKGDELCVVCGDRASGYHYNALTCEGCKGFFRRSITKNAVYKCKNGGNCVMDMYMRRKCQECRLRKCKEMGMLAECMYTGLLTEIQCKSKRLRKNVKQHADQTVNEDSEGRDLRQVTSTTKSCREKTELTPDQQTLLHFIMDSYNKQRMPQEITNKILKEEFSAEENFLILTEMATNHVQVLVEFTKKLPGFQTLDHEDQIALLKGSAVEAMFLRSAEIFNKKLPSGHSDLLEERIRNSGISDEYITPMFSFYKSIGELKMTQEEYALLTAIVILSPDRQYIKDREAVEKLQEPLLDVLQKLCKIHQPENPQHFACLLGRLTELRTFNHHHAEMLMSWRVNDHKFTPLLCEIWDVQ",
  "details": "background statement",
  "data": [
    {"smiles": "CC(C)c1onc(-c2c(Cl)cccc2Cl)c1COc1ccc(/C=C/c2cccc(C(=O)O)c2)c(Cl)c1", "note": "[GW4064]", "values": [
      {"measurement": "FXR activation (in words)", "value": "activates FXR"}
    ]}
  ]
}
